# Reference: article PMC5646733
# Tests used:
# [1] = molecular target: EGF receptor (EGFR) (human (endogenous in MDA-MB-468 and 231-H2N)) (UniProt P00533)
# [2] = molecular target: EGF receptor (EGFR) (human (endogenous in MDA-MB-468 and 231-H2N)) (UniProt P00533); remark: listed apart in the source
"proportion of total radioactivity internalised by MDA-MB-468 cells after 4 h (EGF, 40 nM; surface-bound radioactivity removed with glycine·HCl pH 2.5) (% of total radioactivity) [1]","uptake of radioactivity in MDA-MB-468 xenografts in mice at 72 h p.i., with 30 µg unlabelled EGF coadministered, against none [2] [%ID/g]",Substance
13.2,,^111In-EGF-Au-PEG2000 NP (ligand)
11.1,1.37,^111In-EGF-Au-PEG6000 NP (ligand)
15.1,,^111In-EGF-Au-PEG800 NP (ligand)
15.3,,"^111In-EGF-Au NP (111In-labelled DTPA-EGF attached to 14 nm gold nanoparticles, non-PEGylated) (ligand)"
